Columns and labels:
hTAAR1 = hTAAR1 (Homo sapiens (Human), UniProt Q96RJ0); test: in vitro cAMP assay (agonist activity assay), HitHunter cAMP XS+, cAMP Hunter cell lines; type: cell-based; conditions: maximal cAMP level, cAMP Hunter cells, n in brackets
[1] = tested on: SNL-induced mechanical hyperalgesia in rats; test: spinal nerve ligation (SNL) induced mechanical hyperalgesia model, paw pressure test (PWT)

Sequences of proteins named here, by UniProt entry; tags and fusion partners are left off. A change or cut given only in a name is not applied to a line headed by its entry.
UniProt Q96RJ0: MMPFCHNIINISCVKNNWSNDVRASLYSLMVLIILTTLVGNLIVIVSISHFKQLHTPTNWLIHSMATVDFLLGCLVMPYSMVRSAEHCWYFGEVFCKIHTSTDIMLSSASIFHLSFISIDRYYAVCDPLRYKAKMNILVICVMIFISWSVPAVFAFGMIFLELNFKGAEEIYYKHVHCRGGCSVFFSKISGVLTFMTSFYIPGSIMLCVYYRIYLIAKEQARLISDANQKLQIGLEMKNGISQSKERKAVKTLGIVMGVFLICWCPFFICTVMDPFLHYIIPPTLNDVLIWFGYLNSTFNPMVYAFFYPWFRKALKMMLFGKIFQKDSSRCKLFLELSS

Clc1ccc([C@H]2COC(NC3=N[C@@H](c4ccc(Cl)c(Cl)c4)CO3)=N2)cc1Cl [Compound (8), (4S)-4-(3,4-dichlorophenyl)-N-[(4S)-4-(3,4-dichlorophenyl)-4,5-dihydro-1,3-oxazol-2-yl]-4,5-dihydro-1,3-oxazol-2-amine]
hTAAR1 Emax (mean ± SEM(n)) (hTAAR1): 16.7 ± 7.2% (3)
max reversal of SNL-induced mechanical hyperalgesia ([1]; male Sprague-Dawley rats, 4 weeks post-SNL surgery, dosed orally at 5 mg/kg 1 hour before testing, in 25% HPBCD): 85%
effect on SNL-induced mechanical hyperalgesia ([1]; rats, dosed orally at 5 mg/kg one hour before testing): reduced SNL-induced mechanical hyperalgesia

— patent US10858326B2, “Oxazoline pseudodimers, pharmaceutical compositions and the use thereof” (PURDUE PHARMA L.P., priority 2016, dated 2020)
